Reference: patent US8987445B2, “Sulfonamide compounds having TRPM8 antagonistic activity” (Mitsubishi Tanabe Pharma Corporation, priority 2011, dated 2015)

Protein sequences, listed by entry. Tags and fused reporters are not part of them.
UniProt Q7Z2W7, whole entry: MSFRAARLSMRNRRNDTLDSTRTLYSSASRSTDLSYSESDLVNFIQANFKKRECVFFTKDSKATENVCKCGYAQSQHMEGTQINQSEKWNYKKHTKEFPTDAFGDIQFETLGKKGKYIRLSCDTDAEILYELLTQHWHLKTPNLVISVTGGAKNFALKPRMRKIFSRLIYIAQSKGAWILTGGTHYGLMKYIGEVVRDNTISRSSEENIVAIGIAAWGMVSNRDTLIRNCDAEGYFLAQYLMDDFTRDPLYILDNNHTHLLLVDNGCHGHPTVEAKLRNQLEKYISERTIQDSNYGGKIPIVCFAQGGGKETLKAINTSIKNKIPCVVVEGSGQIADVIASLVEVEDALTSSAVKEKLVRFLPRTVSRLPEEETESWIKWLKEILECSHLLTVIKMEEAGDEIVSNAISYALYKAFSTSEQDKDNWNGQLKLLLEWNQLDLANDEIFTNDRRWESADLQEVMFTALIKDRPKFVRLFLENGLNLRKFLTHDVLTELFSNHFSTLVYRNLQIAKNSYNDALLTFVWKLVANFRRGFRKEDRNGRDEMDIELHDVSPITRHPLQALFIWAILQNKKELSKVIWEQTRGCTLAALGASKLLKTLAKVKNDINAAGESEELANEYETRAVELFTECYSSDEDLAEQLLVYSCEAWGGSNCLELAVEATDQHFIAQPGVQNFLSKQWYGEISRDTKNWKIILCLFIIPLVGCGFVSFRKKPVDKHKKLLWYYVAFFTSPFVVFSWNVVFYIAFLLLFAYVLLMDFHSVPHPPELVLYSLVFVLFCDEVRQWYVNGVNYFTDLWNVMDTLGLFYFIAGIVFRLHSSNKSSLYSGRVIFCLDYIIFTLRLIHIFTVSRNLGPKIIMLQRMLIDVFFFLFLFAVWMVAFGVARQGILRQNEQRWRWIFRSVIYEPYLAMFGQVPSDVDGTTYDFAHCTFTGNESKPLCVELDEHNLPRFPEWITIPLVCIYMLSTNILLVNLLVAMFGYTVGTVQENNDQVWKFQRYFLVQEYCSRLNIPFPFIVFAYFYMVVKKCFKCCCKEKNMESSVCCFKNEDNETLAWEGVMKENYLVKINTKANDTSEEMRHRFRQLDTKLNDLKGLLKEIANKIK

Molecular target: human TRPM8 (Homo sapiens (Human), UniProt Q7Z2W7)
Experiment: TRPM8 inhibition assay (menthol-induced calcium influx, FDSS)
Assay type: cell-based
Conditions: read-out: TRPM8 Blocking Test (IC50); HEK293 cells stably expressing human TRPM8; 100 μM menthol; Fura-2AM Ca2+ signal

**Q.** How did the pIC50 turn out when `O=C(O)c1ccc(S(=O)(=O)N(Cc2ccc(C(F)(F)F)cn2)c2ncc3ccccc3c2C2CC2)cc1` was run?
**A.** 8.66

pIC50: −log10 of the molar value.
